The record followed here is patent US6858588B2, “Nitrile glycoside useful as a bioenhancer of drugs and nutrients, process of its isolation from moringa oleifera” (Council of Scientific and Industrial Research, priority 2003, dated 2005).

Structures are written as SMILES.

In one assay the test system is E. coli DH5α. Put plainly: Enhancement of bacterial transformation with pUC18 plasmid DNA, DH5α. The following applies: strain DH5α; niaziridin @1-10 μg/ml for 4 hours.
Another assay concerns E. coli CA8000. Kind of assay: Enhancement of bacterial transformation with pUC18 plasmid DNA, CA8000. The note with it: niaziridin @1-10 μg/ml for 4 hours.

Take `CC1OC(Oc2ccc(CC#N)cc2O)C(O)C(O)C1O` (centres unmarked) [Niaziridin, NIAZIRIDIN]: the Increase in transformation is 2.3 folds with E. coli DH5α and 5.5 folds with E. coli CA8000.
